Source: US20260327262A1, “BICYCLIC PEPTIDE LIGANDS SPECIFIC FOR EPHA2” (BicycleTx Limited, priority 2019, published 2026)

Protein sequences, listed by entry. Tags and fused reporters are not part of them. Residues count along the entry.
UniProt P29317, 24-976: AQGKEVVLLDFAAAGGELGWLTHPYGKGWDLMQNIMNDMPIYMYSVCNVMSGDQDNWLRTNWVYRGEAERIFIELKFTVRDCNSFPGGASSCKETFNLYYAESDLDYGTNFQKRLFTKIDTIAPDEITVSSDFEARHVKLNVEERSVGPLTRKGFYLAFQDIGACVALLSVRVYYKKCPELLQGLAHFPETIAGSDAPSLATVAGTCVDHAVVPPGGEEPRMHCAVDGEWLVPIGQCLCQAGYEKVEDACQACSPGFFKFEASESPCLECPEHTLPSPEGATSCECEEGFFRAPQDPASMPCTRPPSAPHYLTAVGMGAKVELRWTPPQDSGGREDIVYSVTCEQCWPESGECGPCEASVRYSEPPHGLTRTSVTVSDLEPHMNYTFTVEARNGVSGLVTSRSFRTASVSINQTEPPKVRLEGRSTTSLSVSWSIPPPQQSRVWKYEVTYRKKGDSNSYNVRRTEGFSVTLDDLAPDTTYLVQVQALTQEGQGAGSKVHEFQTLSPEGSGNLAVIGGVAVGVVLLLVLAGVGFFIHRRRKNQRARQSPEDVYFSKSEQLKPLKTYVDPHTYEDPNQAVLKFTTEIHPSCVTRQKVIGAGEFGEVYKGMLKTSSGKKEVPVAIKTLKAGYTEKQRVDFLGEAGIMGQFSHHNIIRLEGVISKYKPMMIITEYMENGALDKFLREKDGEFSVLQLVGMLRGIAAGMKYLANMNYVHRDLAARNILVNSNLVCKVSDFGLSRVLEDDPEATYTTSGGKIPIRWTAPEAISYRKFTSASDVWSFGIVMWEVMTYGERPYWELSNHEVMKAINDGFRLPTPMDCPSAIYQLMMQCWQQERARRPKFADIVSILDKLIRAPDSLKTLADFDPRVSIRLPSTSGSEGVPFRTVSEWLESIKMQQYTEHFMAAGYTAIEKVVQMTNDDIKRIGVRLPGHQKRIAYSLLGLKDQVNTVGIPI

target: human EphA2 (Homo sapiens, UniProt P29317); experiment: Competition Binding Assay (fluorescence polarisation, competition with fluorescent tracer BCY90)

Row | Substance | Ki
1 | A-[HArg]-D-Ci[HyP]LVNPLCiiL[3,3-DPA]P[dD]WTCiii [BCY12859] | 0.723 nM
2 | A-[HArg]-D-Ci[HyP]LVNPLCiiLEP[dA]WTCiii [BCY12858] | 8.19 nM
3 | [dA]-[HArg]-D-Ci[HyP][Cba]VNPLCiiLEP[dA]WTCiii-[dA] [BCY13123] | 6.44 nM
4 | [d1Nal]-[HArg]-D-Ci[HyP][Cba]VNPLCiiLEP[dA]WTCiii-[dA] [BCY13124] | 7.62 nM
5 | A-[HArg]-D-Ci[HyP]LVNPLCiiLEP[dD]WTCiii [BCY12856] | 4.63 nM
6 | [dA]-[dA]-D-Ci[HyP]LVNPLCiiLEP[dD]WTCiii [BCY13127] | 14.9 nM
